Values joined by “and” are separate entries in the source; they are usually repeats but may differ in a detail not shown here. Identical values can stand only once. Like-named read-outs stand apart in the source and are kept apart here.
System: NCI-H2110 xenograft
Conditions: for tumor growth inhibition (TGI): Day 24; for regressed tumors that re-grew or remained measurable (fraction of mice): 30 days after the last dose; for Body weight, group MEAN: N 5
[1] = eribulin 0.2 mg/kg q4dX3 i.v., day 38 post 1st dose
[2] = eribulin 1.6 mg/kg q4dx3 i.v., day 17 post 1st dose

## C=C1C[C@@H]2CC[C@@]34C[C@H]5O[C@H]6[C@@H](O3)[C@H]3O[C@H](CC[C@@H]3O[C@H]6[C@H]5O4)CC(=O)C[C@@H]3[C@@H](OC)[C@@H](C[C@H](O)CN)O[C@H]3C[C@H]3O[C@@H](CC[C@@H]1O2)C[C@@H](C)C3=C [eribulin]
0.05 mg/kg q4dx3
  tumor regression, in words: no tumor regression observed
0.05 mg/kg q4dx3 i.v.
  tumor growth inhibition (TGI): 50.5%
0.2 mg/kg and higher, q4dX3 i.v.
  tumor regression, in words: Tumor regression was achieved
0.2 mg/kg group
  regressed tumors that re-grew or remained measurable (fraction of mice): ⅗
0.8 mg/kg group
  regressed tumors that re-grew or remained measurable (fraction of mice): ⅘
1.6 mg/kg group
  regressed tumors that re-grew or remained measurable (fraction of mice): ⅖
0.2, 0.8, or 1.6 mg/kg q4dx3 i.v.
  tumor growth inhibition (TGI): 99%
Eribulin 0.05 mg/kg q4dX3 i.v., day 0 post 1st dose
  Body weight, group MEAN: 18.4
Eribulin 0.05 mg/kg q4dX3 i.v., day 3 post 1st dose
  Body weight, group MEAN: 18.8
Eribulin 0.05 mg/kg q4dX3 i.v., day 5 post 1st dose
  Body weight, group MEAN: 18.8
Eribulin 0.05 mg/kg q4dX3 i.v., day 7 post 1st dose
  Body weight, group MEAN: 18.8
Eribulin 0.05 mg/kg q4dX3 i.v., day 10 post 1st dose
  Body weight, group MEAN: 18.8
Eribulin 0.05 mg/kg q4dX3 i.v., day 12 post 1st dose
  Body weight, group MEAN: 18.5
Eribulin 0.05 mg/kg q4dX3 i.v., day 17 post 1st dose
  Body weight, group MEAN: 19.2
Eribulin 0.05 mg/kg q4dX3 i.v., day 19 post 1st dose
  Body weight, group MEAN: 18.5
Eribulin 0.05 mg/kg q4dX3 i.v., day 24 post 1st dose
  Body weight, group MEAN: 17.9
Eribulin 0.05 mg/kg q4dx3 i.v., day 0 post 1st dose
  tumor volume, group MEAN: 87.6 mm^3
Eribulin 0.05 mg/kg q4dx3 i.v., day 3 post 1st dose
  tumor volume, group MEAN: 133.2 mm^3
Eribulin 0.05 mg/kg q4dx3 i.v., day 5 post 1st dose
  tumor volume, group MEAN: 201.8 mm^3
Eribulin 0.05 mg/kg q4dx3 i.v., day 7 post 1st dose
  tumor volume, group MEAN: 229.2 mm^3
Eribulin 0.05 mg/kg q4dx3 i.v., day 10 post 1st dose
  tumor volume, group MEAN: 317 mm^3
Eribulin 0.05 mg/kg q4dx3 i.v., day 10 post 1st dose (second line so printed, between 17 and 24)
  tumor volume, group MEAN: 765.4 mm^3
Eribulin 0.05 mg/kg q4dx3 i.v., day 12 post 1st dose
  tumor volume, group MEAN: 347.4 mm^3
Eribulin 0.05 mg/kg q4dx3 i.v., day 17 post 1st dose
  tumor volume, group MEAN: 628.2 mm^3
Eribulin 0.05 mg/kg q4dx3 i.v., day 24 post 1st dose
  tumor volume, group MEAN: 1036.8 mm^3
Eribulin 0.2 mg/kg q4dX3 i.v., day 0 post 1st dose
  Body weight, group MEAN: 18.4
Eribulin 0.2 mg/kg q4dX3 i.v., day 3 post 1st dose
  Body weight, group MEAN: 18.7
Eribulin 0.2 mg/kg q4dX3 i.v., day 5 post 1st dose
  Body weight, group MEAN: 19.0
Eribulin 0.2 mg/kg q4dX3 i.v., day 7 post 1st dose
  Body weight, group MEAN: 18.9
Eribulin 0.2 mg/kg q4dX3 i.v., day 10 post 1st dose
  Body weight, group MEAN: 18.8
Eribulin 0.2 mg/kg q4dX3 i.v., day 12 post 1st dose
  Body weight, group MEAN: 18.8
Eribulin 0.2 mg/kg q4dX3 i.v., day 17 post 1st dose
  Body weight, group MEAN: 19.1
Eribulin 0.2 mg/kg q4dX3 i.v., day 19 post 1st dose
  Body weight, group MEAN: 18.8
Eribulin 0.2 mg/kg q4dX3 i.v., day 24 post 1st dose
  Body weight, group MEAN: 19.3
Eribulin 0.2 mg/kg q4dX3 i.v., day 26 post 1st dose
  Body weight, group MEAN: 19.5
Eribulin 0.2 mg/kg q4dX3 i.v., day 28 post 1st dose
  Body weight, group MEAN: 20.4
Eribulin 0.2 mg/kg q4dX3 i.v., day 31 post 1st dose
  Body weight, group MEAN: 20.3
Eribulin 0.2 mg/kg q4dX3 i.v., day 33 post 1st dose
  Body weight, group MEAN: 20.3
Eribulin 0.2 mg/kg q4dX3 i.v., day 35 post 1st dose
  Body weight, group MEAN: 20.1
[1]
  Body weight, individual animal: 20.8 and 18.3 and 21.6 (2×)
  Body weight, group MEAN: 20.5
Eribulin 0.2 mg/kg q4dx3 i.v., day 0 post 1st dose
  tumor volume, group MEAN: 88.2 mm^3
Eribulin 0.2 mg/kg q4dx3 i.v., day 3 post 1st dose
  tumor volume, group MEAN: 64.4 mm^3
Eribulin 0.2 mg/kg q4dx3 i.v., day 5 post 1st dose
  tumor volume, group MEAN: 61.8 mm^3
Eribulin 0.2 mg/kg q4dx3 i.v., day 7 post 1st dose
  tumor volume, group MEAN: 46 mm^3
Eribulin 0.2 mg/kg q4dx3 i.v., day 10 post 1st dose
  tumor volume, group MEAN: 36.6 mm^3
Eribulin 0.2 mg/kg q4dx3 i.v., day 10 post 1st dose (second line so printed, between 17 and 24)
  tumor volume, group MEAN: 28 mm^3
Eribulin 0.2 mg/kg q4dx3 i.v., day 12 post 1st dose
  tumor volume, group MEAN: 22 mm^3
Eribulin 0.2 mg/kg q4dx3 i.v., day 17 post 1st dose
  tumor volume, group MEAN: 2.6 mm^3
Eribulin 0.2 mg/kg q4dx3 i.v., day 24 post 1st dose
  tumor volume, group MEAN: 13.6 mm^3
Eribulin 0.2 mg/kg q4dx3 i.v., day 26 post 1st dose
  tumor volume, group MEAN: 9.8 mm^3
Eribulin 0.2 mg/kg q4dx3 i.v., day 28 post 1st dose
  tumor volume, group MEAN: 20.8 mm^3
Eribulin 0.2 mg/kg q4dx3 i.v., day 31 post 1st dose
  tumor volume, group MEAN: 11.4 mm^3
Eribulin 0.2 mg/kg q4dx3 i.v., day 33 post 1st dose
  tumor volume, group MEAN: 12.4 mm^3
Eribulin 0.2 mg/kg q4dx3 i.v., day 35 post 1st dose
  tumor volume, group MEAN: 15.4 mm^3
Eribulin 0.2 mg/kg q4dx3 i.v., day 38 post 1st dose
  tumor volume, group MEAN: 15.6 mm^3
Eribulin 0.8 mg/kg q4dX3 i.v., day 0 post 1st dose
  Body weight, group MEAN: 18.1
Eribulin 0.8 mg/kg q4dX3 i.v., day 3 post 1st dose
  Body weight, group MEAN: 18.5
Eribulin 0.8 mg/kg q4dX3 i.v., day 5 post 1st dose
  Body weight, group MEAN: 18.3
Eribulin 0.8 mg/kg q4dX3 i.v., day 7 post 1st dose
  Body weight, group MEAN: 18.6
Eribulin 0.8 mg/kg q4dX3 i.v., day 10 post 1st dose
  Body weight, group MEAN: 18.5
Eribulin 0.8 mg/kg q4dX3 i.v., day 12 post 1st dose
  Body weight, group MEAN: 18.3
Eribulin 0.8 mg/kg q4dX3 i.v., day 17 post 1st dose
  Body weight, group MEAN: 18.5
Eribulin 0.8 mg/kg q4dX3 i.v., day 19 post 1st dose
  Body weight, group MEAN: 18.5
Eribulin 0.8 mg/kg q4dX3 i.v., day 24 post 1st dose
  Body weight, group MEAN: 18.6
Eribulin 0.8 mg/kg q4dX3 i.v., day 26 post 1st dose
  Body weight, group MEAN: 18.8
Eribulin 0.8 mg/kg q4dX3 i.v., day 28 post 1st dose
  Body weight, group MEAN: 19.7
Eribulin 0.8 mg/kg q4dX3 i.v., day 31 post 1st dose
  Body weight, group MEAN: 19.7
Eribulin 0.8 mg/kg q4dX3 i.v., day 33 post 1st dose
  Body weight, group MEAN: 19.7
Eribulin 0.8 mg/kg q4dx3 i.v., day 0 post 1st dose
  tumor volume, group MEAN: 88.6 mm^3
Eribulin 0.8 mg/kg q4dx3 i.v., day 3 post 1st dose
  tumor volume, group MEAN: 46.6 mm^3
Eribulin 0.8 mg/kg q4dx3 i.v., day 5 post 1st dose
  tumor volume, group MEAN: 32.4 mm^3
Eribulin 0.8 mg/kg q4dx3 i.v., day 7 post 1st dose
  tumor volume, group MEAN: 24.4 mm^3
Eribulin 0.8 mg/kg q4dx3 i.v., day 10 post 1st dose
  tumor volume, group MEAN: 16.8 mm^3
Eribulin 0.8 mg/kg q4dx3 i.v., day 10 post 1st dose (second line so printed, between 17 and 24)
  tumor volume, group MEAN: 13 mm^3
Eribulin 0.8 mg/kg q4dx3 i.v., day 12 post 1st dose
  tumor volume, group MEAN: 18 mm^3
Eribulin 0.8 mg/kg q4dx3 i.v., day 17 post 1st dose
  tumor volume, group MEAN: 16.2 mm^3
Eribulin 0.8 mg/kg q4dx3 i.v., day 24 post 1st dose
  tumor volume, group MEAN: 13.4 mm^3
Eribulin 0.8 mg/kg q4dx3 i.v., day 26 post 1st dose
  tumor volume, group MEAN: 10.2 mm^3
Eribulin 0.8 mg/kg q4dx3 i.v., day 28 post 1st dose
  tumor volume, group MEAN: 13.4 mm^3
Eribulin 0.8 mg/kg q4dx3 i.v., day 31 post 1st dose
  tumor volume, group MEAN: 16 mm^3
Eribulin 0.8 mg/kg q4dx3 i.v., day 33 post 1st dose
  tumor volume, group MEAN: 16.6 mm^3
Eribulin 0.8 mg/kg q4dx3 i.v., day 35 post 1st dose
  tumor volume, group MEAN: 17 mm^3
Eribulin 0.8 mg/kg q4dx3 i.v., day 38 post 1st dose
  tumor volume, group MEAN: 18.2 mm^3
Eribulin 1.6 mg/kg q4dX3 i.v., day 0 post 1st dose
  Body weight, group MEAN: 18.2
Eribulin 1.6 mg/kg q4dX3 i.v., day 3 post 1st dose
  Body weight, group MEAN: 18.3
Eribulin 1.6 mg/kg q4dX3 i.v., day 5 post 1st dose
  Body weight, group MEAN: 18.2
Eribulin 1.6 mg/kg q4dX3 i.v., day 7 post 1st dose
  Body weight, group MEAN: 18.3
Eribulin 1.6 mg/kg q4dX3 i.v., day 10 post 1st dose
  Body weight, group MEAN: 18.4
Eribulin 1.6 mg/kg q4dX3 i.v., day 12 post 1st dose
  Body weight, group MEAN: 18.0
Eribulin 1.6 mg/kg q4dX3 i.v., day 17 post 1st dose
  Body weight, group MEAN: 18.7
Eribulin 1.6 mg/kg q4dX3 i.v., day 19 post 1st dose
  Body weight, group MEAN: 18.7
Eribulin 1.6 mg/kg q4dX3 i.v., day 24 post 1st dose
  Body weight, group MEAN: 19.0
Eribulin 1.6 mg/kg q4dX3 i.v., day 26 post 1st dose
  Body weight, group MEAN: 19.2
Eribulin 1.6 mg/kg q4dX3 i.v., day 28 post 1st dose
  Body weight, group MEAN: 20.1
Eribulin 1.6 mg/kg q4dX3 i.v., day 31 post 1st dose
  Body weight, group MEAN: 20.1
Eribulin 1.6 mg/kg q4dX3 i.v., day 33 post 1st dose
  Body weight, group MEAN: 20.0
Eribulin 1.6 mg/kg q4dX3 i.v., day 35 post 1st dose
  Body weight, group MEAN: 20.4
Eribulin 1.6 mg/kg q4dX3 i.v., day 38 post 1st dose
  Body weight, group MEAN: 20.1
Eribulin 1.6 mg/kg q4dx3 i.v., day 0 post 1st dose
  tumor volume, group MEAN: 88.4 mm^3
Eribulin 1.6 mg/kg q4dx3 i.v., day 3 post 1st dose
  tumor volume, group MEAN: 45.8 mm^3
Eribulin 1.6 mg/kg q4dx3 i.v., day 5 post 1st dose
  tumor volume, group MEAN: 25.4 mm^3
Eribulin 1.6 mg/kg q4dx3 i.v., day 7 post 1st dose
  tumor volume, group MEAN: 17.6 mm^3
Eribulin 1.6 mg/kg q4dx3 i.v., day 10 post 1st dose
  tumor volume, group MEAN: 11.6 mm^3
Eribulin 1.6 mg/kg q4dx3 i.v., day 10 post 1st dose (second line so printed, between 17 and 24)
  tumor volume, group MEAN: 3.8 mm^3
Eribulin 1.6 mg/kg q4dx3 i.v., day 12 post 1st dose
  tumor volume, group MEAN: 5.4 mm^3
[2]
  tumor volume, group MEAN: 0 mm^3
  tumor volumes in individual mice: 0 mm^3
Eribulin 1.6 mg/kg q4dx3 i.v., day 24 post 1st dose
  tumor volume, group MEAN: 7.4 mm^3
Eribulin 1.6 mg/kg q4dx3 i.v., day 26 post 1st dose
  tumor volume, group MEAN: 5 mm^3
Eribulin 1.6 mg/kg q4dx3 i.v., day 28 post 1st dose
  tumor volume, group MEAN: 3.2 mm^3
Eribulin 1.6 mg/kg q4dx3 i.v., day 31 post 1st dose
  tumor volume, group MEAN: 5.6 mm^3
Eribulin 1.6 mg/kg q4dx3 i.v., day 33 post 1st dose
  tumor volume, group MEAN: 7.2 mm^3
Eribulin 1.6 mg/kg q4dx3 i.v., day 35 post 1st dose
  tumor volume, group MEAN: 6.2 mm^3
Eribulin 1.6 mg/kg q4dx3 i.v., day 38 post 1st dose
  tumor volume, group MEAN: 6.2 mm^3
q4dx3 i.v.
  minimum efficacious dose that induced tumor regression: 0.2 mg/kg
